One assay concerns A549. In words: MTT anti-proliferative assay, A549. The following applies: for IC50: read-out: Anti-proliferative activity (IC50, µM) against tumor cell lines, A549, A549, human non-small cell lung cancer cell line, MTT, 96 h incubation; for inhibitory activity against A549, in words: Table 2. (Formazan colour is commonly taken as a measure of viable cells.)
A further assay concerns the target HDAC1 (Homo sapiens, UniProt Q13547). Kind of assay: HDAC1 inhibition assay (described as ADP-Glo Luminescent Kinase Assay). As to conditions: read-out: HDAC1 inhibitory activity (IC50); 1 h incubation at room temperature; test concentrations 0.05 nM to 1.0 µM. (ADP-Glo first removes unused ATP, then detects ADP through luciferase.)
The next assay deals with DU145. Kind of assay: MTT anti-proliferative assay, DU145.
[1] abbreviates: read-out: Anti-proliferative activity (IC50, µM) against tumor cell lines, DU145, DU145, human prostate cancer cell line, MTT, 96 h incubation.

By UniProt entry, the sequences of proteins in these tests, tags left out.
UniProt Q13547, whole entry: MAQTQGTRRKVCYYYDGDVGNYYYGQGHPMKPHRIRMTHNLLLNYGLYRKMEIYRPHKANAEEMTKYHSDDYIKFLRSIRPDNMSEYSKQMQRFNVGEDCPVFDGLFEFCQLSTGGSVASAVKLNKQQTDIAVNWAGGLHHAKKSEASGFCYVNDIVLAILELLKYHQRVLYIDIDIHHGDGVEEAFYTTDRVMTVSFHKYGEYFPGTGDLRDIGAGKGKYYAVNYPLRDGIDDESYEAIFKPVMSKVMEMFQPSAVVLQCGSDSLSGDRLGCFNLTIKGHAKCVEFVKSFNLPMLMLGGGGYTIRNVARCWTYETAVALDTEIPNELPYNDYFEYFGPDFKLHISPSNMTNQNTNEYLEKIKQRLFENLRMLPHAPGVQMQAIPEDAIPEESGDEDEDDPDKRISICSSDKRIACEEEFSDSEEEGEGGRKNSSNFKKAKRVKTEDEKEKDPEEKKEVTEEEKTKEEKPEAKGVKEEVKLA

Structures are written as SMILES. Like-named read-outs stand apart in the source and are kept apart here. A value given as a limit tells only on which side of the number the result lay.

Consider 42 compounds from patent EP4847493A1, “THIAZOLIDINEDIONE HDAC INHIBITOR, PREPARATION METHOD THEREFOR AND USE THEREOF” (dated 2026).

Consider `COc1ccc(Br)cc1/C=C1\SC(=O)N(CCCCCCC(=O)NO)C1=O`, for which the values for the IC50 with A549, at HDAC1 and with DU145 (setting [1]) were 1.5 µM, 2.6 nM and 3.57 µM, respectively.

In the case of `O=C(CCCCCCN1C(=O)S/C(=C\c2cccc(Br)c2)C1=O)NO`, the IC50 in the assay on A549 came out at 3.67 µM; at HDAC1, 5 nM; in the assay with DU145 (setting [1]), 1.29 µM.

Consider `COc1cccc(Cl)c1/C=C1\SC(=O)N(CCCCCCC(=O)NO)C1=O`, for which the IC50 in the assay with A549 came out at 7.52 µM; on HDAC1 it was 3.4 nM; with DU145 (setting [1]), 3.26 µM.

On to `COc1cc(Br)ccc1/C=C1\SC(=O)N(CCCCCCC(=O)NO)C1=O`, for which the IC50 in the assay on A549 was 4 µM; on HDAC1 it was 1.9 nM; with DU145 (setting [1]), 1.05 µM.

Regarding `COc1c(Cl)cccc1/C=C1\SC(=O)N(CCCCCCC(=O)NO)C1=O`, the results for the IC50 in the assay with A549, on HDAC1 and in the assay on DU145 (setting [1]) were 3.78 µM, 3.2 nM and 2 µM, respectively.

Regarding `COc1cc(C)ccc1/C=C1\SC(=O)N(CCCCCCC(=O)NO)C1=O`, the IC50 with A549 was found to be 2 µM; at HDAC1 it was 3.6 nM; with DU145 (setting [1]) it was 1.15 µM.

Consider `O=C(CCCCCCN1C(=O)S/C(=C\c2ccccc2Br)C1=O)NO`, for which the IC50 was found to be 4.31 µM in the assay with A549, 4 nM on HDAC1 and 1.22 µM in the assay on DU145 (setting [1]).

`COc1ccc(/C=C2\SC(=S)N(CCCCCCC(=O)NO)C2=O)cc1`: the results for the IC50 in the assay with A549 and with DU145 (setting [1]) were 3.09 µM and 2.46 µM, respectively.

With `COC(=O)c1cccc(/C=C2\SC(=O)N(CCCCCCC(=O)NO)C2=O)c1`, the values for the IC50 in the assay with A549, on HDAC1 and in the assay with DU145 (setting [1]) were 1.6 µM, 3.6 nM and 1.09 µM, respectively.

As to `COc1c(Br)cccc1/C=C1\SC(=O)N(CCCCCCC(=O)NO)C1=O`, the figures for the IC50 in the assay on A549, at HDAC1 and in the assay with DU145 (setting [1]) were 1.56 µM, 2.8 nM and 0.74 µM, respectively.

With `O=C(CCCCCCN1C(=O)S/C(=C\c2ccc3cccnc3c2)C1=O)NO`, the IC50 in the assay on A549 was 1.07 µM; at HDAC1, 5.6 nM; with DU145 (setting [1]), < 0.1 µM; in the assay with DU145 (read-out: inhibitory activity against DU145, DU145, text restatement of Table 2 in nM), < 0.1 µM.

Turning to `O=C(CCCCCCN1C(=O)S/C(=C\c2ccccc2)C1=O)NO`, the values for the IC50 in the assay on A549, on HDAC1 and with DU145 (setting [1]) were 3.1 µM, 3.2 nM and 0.51 µM, respectively.

`COC(=O)c1ccc(/C=C2\SC(=O)N(CCCCCCC(=O)NO)C2=O)cc1`: the IC50 in the assay with A549 came to 5.37 µM; on HDAC1 it was 4.8 nM; with DU145 (setting [1]), 4.19 µM.

Take `O=C(CCCCCCN1C(=O)S/C(=C\c2cccnc2)C1=O)NO`: the IC50 in the assay on A549 stood at 10.9 µM; at HDAC1, 10 nM; in the assay on DU145 (setting [1]) it was 3.18 µM.

Regarding `O=C(CCCCCCN1C(=O)S/C(=C\c2cccc3cccnc23)C1=O)NO`, the values for the IC50 with A549, on HDAC1 and in the assay on DU145 (setting [1]) were 2.69 µM, 1.3 nM and 0.22 µM, respectively.

Take `O=C(CCCCCCN1C(=O)S/C(=C\c2ccc(Cl)cc2)C1=O)NO`: the IC50 amounted to 4.71 µM with A549, 2.1 nM on HDAC1 and 0.84 µM in the assay with DU145 (setting [1]).

As for `COc1ccc(/C=C2\SC(=O)N(CCCCCCC(=O)NO)C2=O)cc1Br`, the IC50 in the assay on A549 was 2.51 µM; on HDAC1 it was 2.4 nM; with DU145 (setting [1]), 0.53 µM.

Take `Nc1ccc(/C=C2\SC(=O)N(CCCCCCC(=O)NO)C2=O)cc1`: the IC50 amounted to 1.52 µM in the assay with A549, 2.6 nM at HDAC1 and 0.29 µM in the assay on DU145 (setting [1]).

As for `COc1cccc(/C=C2\SC(=O)N(CCCCCCC(=O)NO)C2=O)c1`, the IC50 in the assay with A549 was determined as 1.34 µM; at HDAC1, 2.2 nM; in the assay with DU145 (setting [1]) it was 0.5 µM.

Consider `O=C(CCCCCCN1C(=O)S/C(=C\c2cccs2)C1=O)NO`, for which the IC50 was determined as 2.32 µM in the assay with A549, 3.1 nM at HDAC1 and 0.33 µM in the assay on DU145 (setting [1]).

On to `COc1ccc(/C=C2\SC(=O)N(CCCCCCC(=O)NO)C2=O)c(OC)c1`, for which, in the assay on A549, the “inhibitory activity against A549, in words” value was “submicromolar-level”. Further, the IC50 worked out at 0.91 µM in the assay on A549, 3 nM on HDAC1 and 0.74 µM in the assay on DU145 (setting [1]).

On to `O=C(CCCCCCN1C(=O)S/C(=C\c2ccc(Br)cc2)C1=O)NO`, for which the IC50 in the assay with A549 came to 1.61 µM; at HDAC1, 6.7 nM; with DU145 (setting [1]) it was 1.05 µM.

With `O=C(CCCCCCN1C(=O)S/C(=C\c2ccccc2Cl)C1=O)NO`, the values for the IC50 in the assay on A549, on HDAC1 and in the assay with DU145 (setting [1]) were 5.36 µM, 6.1 nM and 1.23 µM, respectively.

Consider `O=C(CCCCCCN1C(=O)S/C(=C\c2ccc3ncccc3c2)C1=O)NO`, for which the IC50 was determined as 10.1 µM in the assay with A549, 1.8 nM at HDAC1 and 2.4 µM in the assay with DU145 (setting [1]).

As to `O=C(CCCCCCN1C(=O)S/C(=C\c2cccc(Cl)c2)C1=O)NO`, the figures for the IC50 in the assay on A549, on HDAC1 and in the assay on DU145 (setting [1]) were 6.44 µM, 2.5 nM and 0.86 µM, respectively.

In the case of `Cc1ccc(/C=C2\SC(=S)N(CCCCCCC(=O)NO)C2=O)cc1`, the IC50 with A549 amounted to 2.98 µM; on HDAC1, 8.5 nM; in the assay on DU145 (setting [1]), 3.31 µM.

Regarding `O=C(CCCCCCN1C(=O)S/C(=C\c2ccco2)C1=O)NO`, the results for the IC50 in the assay on A549, on HDAC1 and with DU145 (setting [1]) were 1.26 µM, 4.2 nM and 0.16 µM, respectively.

Turning to `O=C(CCCCCCN1C(=O)S/C(=C\c2ccc3c(c2)CCO3)C1=O)NO`, the results for the IC50 with A549, at HDAC1 and with DU145 (setting [1]) were 2.08 µM, 1.9 nM and 9.18 µM, respectively.

`O=C(CCCCCCN1C(=O)S/C(=C\c2ccc3ccccc3n2)C1=O)NO`: the “inhibitory activity against A549, in words” value in the assay on A549 was “submicromolar-level”. Besides, the results for the IC50 in the assay on A549, on HDAC1 and in the assay with DU145 (setting [1]) were 0.55 µM, 2.5 nM and 6.56 µM, respectively.

For the compound `O=C(CCCCCCN1C(=O)S/C(=C\c2ccc(F)cc2)C1=O)NO`, the values for the IC50 in the assay on A549, at HDAC1 and in the assay on DU145 (setting [1]) were 3.62 µM, 3.3 nM and 1.64 µM, respectively.

On to `O=C(CCCCCCN1C(=O)S/C(=C\c2ccc3ccccc3c2)C1=O)NO`, for which the results for the IC50 in the assay with A549, at HDAC1 and in the assay with DU145 (setting [1]) were 2.44 µM, 3.4 nM and 1.39 µM, respectively.

As to `COc1ccc(/C=C2\SC(=O)N(CCCCCCC(=O)NO)C2=O)cc1`, the IC50 in the assay with A549 was determined as 1.37 µM; on HDAC1, 3.5 nM; in the assay with DU145 (setting [1]), 0.29 µM.

In the case of `CC(C)c1ccc(/C=C2\SC(=O)N(CCCCCCC(=O)NO)C2=O)cc1`, the IC50 was found to be 5.64 µM in the assay with A549 and 3.81 µM in the assay with DU145 (setting [1]).

In the case of `CCc1ccc(/C=C2\SC(=S)N(CCCCCCC(=O)NO)C2=O)cc1`, the IC50 in the assay with A549 turned out to be 2.7 µM; at HDAC1, 31 nM; with DU145 (setting [1]), 3.64 µM.

Consider `CCOc1ccccc1/C=C1\SC(=O)N(CCCCCCC(=O)NO)C1=O`, for which the values for the IC50 with A549, at HDAC1 and in the assay on DU145 (setting [1]) were 3.36 µM, 3.9 nM and 0.5 µM, respectively.

As for `COc1ccc(Cl)cc1/C=C1\SC(=O)N(CCCCCCC(=O)NO)C1=O`, the IC50 is 2.82 µM in the assay with A549, 2.3 nM at HDAC1 and 1.27 µM in the assay with DU145 (setting [1]).

On to `COc1cc(F)ccc1/C=C1\SC(=O)N(CCCCCCC(=O)NO)C1=O`, for which the results for the IC50 in the assay on A549, on HDAC1 and with DU145 (setting [1]) were 2.71 µM, 2.4 nM and 0.93 µM, respectively.

Regarding `O=C(CCCCCCN1C(=O)S/C(=C\c2ccc3c(c2)OCO3)C1=O)NO`, the IC50 with A549 turned out to be 2.47 µM; at HDAC1, 2.3 nM; with DU145 (setting [1]) it was 1.06 µM.

As to `O=C(CCCCCCN1C(=O)/C(=C/c2ccc(Cl)cc2)SC1=S)NO`, the IC50 in the assay on A549 was found to be 5.65 µM; at HDAC1 it was 11 nM; with DU145 (setting [1]), 3.62 µM.

For `COc1ccc(/C=C2\SC(=O)N(CCCCCCC(=O)NO)C2=O)c(Br)c1`, the results for the IC50 in the assay with A549, at HDAC1 and in the assay on DU145 (setting [1]) were 2.28 µM, 4.1 nM and 0.97 µM, respectively.

In the case of `COc1cc(Cl)ccc1/C=C1\SC(=O)N(CCCCCCC(=O)NO)C1=O`, the IC50 with A549 came to 5.96 µM; on HDAC1 it was 4.4 nM; with DU145 (setting [1]), 1.97 µM.

Consider `O=C(CCCCCCN1C(=O)S/C(=C\c2cnc3ccccc3c2)C1=O)NO`, for which the results for the IC50 in the assay on A549, at HDAC1 and with DU145 (setting [1]) were 3.83 µM, 4.2 nM and 2.1 µM, respectively.
